Results as given in patent US20070078263A1, “BIARYL SUBSTITUTED HETEROCYCLE INHIBITORS OF LTA4H FOR TREATING INFLAMMATION” (deCODE Chemistry, Inc., priority 2005, published 2007).
pIC50: −log10 of the molar value. Where a name gives a salt, the structure may show the parent alone. Read-outs that look alike come from different tables or passages of the source.

Assays:
[1] = biological target: T1, human LTA4 hydrolase (Homo sapiens, UniProt P09960); assay: In vitro assay testing inhibitory activity against purified recombinant human LTA4 hydrolase (LTB4 formed, LC-MS/MS); format: biochemical;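 note: 200 nM enzyme preincubated 10 min at room temperature with serial inhibitor dilutions in pH 8.0 Tris buffer with BSA and 10% DMSO, then 2 µM LTA4 added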
T1 construct: A human LTA4 hydrolase full-length cDNA clone (NM 000895) was purchased; His tag (6xHis of vector pDEST17); made in house; host or cells: Escherichia coli BL21-AI
T1 sequence (P09960 1-611): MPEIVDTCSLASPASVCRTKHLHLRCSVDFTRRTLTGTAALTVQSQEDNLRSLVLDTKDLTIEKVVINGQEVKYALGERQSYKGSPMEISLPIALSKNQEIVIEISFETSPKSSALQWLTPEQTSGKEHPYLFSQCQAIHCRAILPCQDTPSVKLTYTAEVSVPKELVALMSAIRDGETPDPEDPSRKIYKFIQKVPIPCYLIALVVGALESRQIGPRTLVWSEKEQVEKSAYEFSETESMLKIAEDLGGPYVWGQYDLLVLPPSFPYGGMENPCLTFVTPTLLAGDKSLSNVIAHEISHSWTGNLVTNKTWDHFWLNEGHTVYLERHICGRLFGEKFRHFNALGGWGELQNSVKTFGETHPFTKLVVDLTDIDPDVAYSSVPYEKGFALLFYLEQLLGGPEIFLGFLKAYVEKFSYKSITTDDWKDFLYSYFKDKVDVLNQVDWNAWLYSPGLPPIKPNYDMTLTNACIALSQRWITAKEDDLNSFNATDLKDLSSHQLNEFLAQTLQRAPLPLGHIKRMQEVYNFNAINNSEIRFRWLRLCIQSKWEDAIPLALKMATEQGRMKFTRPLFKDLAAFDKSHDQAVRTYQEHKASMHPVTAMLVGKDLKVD

[2] = system: human whole blood; assay: Ex vivo assay testing inhibitory activity in human whole blood after stimulation with calcium ionophore (LTB4 ELISA); format: cell-based; conditions: Ionomycin 20 μM, read-out: hWBIC50;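 note: heparinized human blood preincubated 15 min at 37 °C with compound, then ionomycin-stimulated for 30 min, LTB4 in plasma supernatant quantified by ELISA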
[3] = recombinant human LTA4 hydrolase 200 nM, LTA4 2 μM, read-out: AvgIC50

With `c1ccc(Cc2ccc(OC[C@H]3CCCN3)cc2)cc1` [Example 1, (R)-2-(4-Benzylphenoxymethyl)pyrrolidine] the pIC50 [1] was > 5.30 and the pIC50 [2] was > 5.30.
In the case of `c1ccc(Cc2ccc(OC[C@@H]3CCCN3)cc2)cc1` [Example 2, (S)-2-(4-Benzylphenoxymethyl)pyrrolidine], the pIC50 [1] was > 5.30.
With `O=C(O)CCCN1CCC[C@@H]1COc1ccc(Oc2ccc(Cl)cc2)cc1` [Example 20, 4-{(R)-2-[4-(4-Chloro-phenoxy)-phenoxymethyl]-pyrrolidin-1-yl}-butyric acid hydrochloride] the pIC50 [1, 3] was > 5.30.
For `O=C(O)CCCN1CCC[C@H]1COc1ccc(Oc2ccc(Cl)cc2)cc1` [Example 22, 4-{(S)-2-[4-(4-Chloro-phenoxy)-phenoxymethyl]-pyrrolidin-1-yl}-butyric acid hydrochloride], the pIC50 [1, 3] was > 5.30.
In the case of `c1ccc(CNc2ccc(OC[C@H]3CCCN3)cc2)cc1` [Example 48, Benzyl-[4-((R)-1-pyrrolidin-2-ylmethoxy)-phenyl]-amine], the pIC50 [2] was > 5.30.
`[2H]C([2H])(CN1CCC[C@H]1COc1ccc(Oc2ccc(Cl)cc2)cc1)C([2H])([2H])C(=O)O` [Example 68, 4-{(S)-2-[4-(4-chloro-phenyoxy)-phenoxymethyl]-pyrrolidin-1-yl}-butyric acid (D4)] was tested, and the pIC50 [1, 3] was > 5.30.
